Measured values published in US20140147411A1, “METHODS OF TREATING CANCER AND TESTING MUTATION ZYGOSITY RELATED THERETO” (U.S. GOVERNMENT represented by the UNITED STATES DEPARTMENT …, priority 2012, published 2014).

System: A375 melanoma cells
Assay: Cell surface MHC class I, B2M and MHC class II by flow cytometry in A375 cells after interferon
Conditions: IFN-α2b alone

For “IFN-α2b: type I interferon; INTRON A is recombinant Interferon alfa-2b”, the MHCII expression was “no impact on MHCII expression”.
